Source: PubChem BioAssay AID588493 (Sanford-Burnham Center for Chemical Genomics, 2011)
This is a selection; strong and weak results do not stand in their true shares. Some salts and complexes are drawn in separate pieces, as the source files them; their charges need not balance. Activity calls are given as the source filed them.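 How the source made its calls: active means inhibition at 20 µM, scaled to each plate's controls, above about 33% (limit read from the data); inactive means the rest.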

Chains of the proteins cited; added tags and fusions are not shown.
UniProt O00487, whole entry: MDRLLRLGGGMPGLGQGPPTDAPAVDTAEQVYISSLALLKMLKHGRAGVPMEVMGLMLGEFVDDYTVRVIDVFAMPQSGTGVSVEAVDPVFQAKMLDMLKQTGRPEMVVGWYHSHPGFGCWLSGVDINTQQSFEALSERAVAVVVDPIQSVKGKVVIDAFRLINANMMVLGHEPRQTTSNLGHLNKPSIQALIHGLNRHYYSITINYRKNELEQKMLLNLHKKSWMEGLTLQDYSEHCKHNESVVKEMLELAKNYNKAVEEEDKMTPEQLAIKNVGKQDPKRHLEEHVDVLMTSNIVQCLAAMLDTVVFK

What follows are compounds tested against 26S proteasome non-ATPase regulatory subunit 14 (Homo sapiens) (UniProt O00487) (assay: inhibition of 26S proteasome subunit Rpn11 – biochemical, fluorescence polarization, uHTS, primary screen (AID 588493)). Settings: human 26S proteasome, Ub4-pepOG fluorescence polarization; at 20 µM; active compounds read high; 20S core pre-blocked with epoxomicin.

| SMILES | inhibition |
| --- | --- |
| CC1=NCCc2c1[nH]c1ccccc21.O=[N+]([O-])c1cc([N+](=O)[O-])c(O)c([N+](=O)[O-])c1 | inactive: -4.2% |
| O=C(O)c1cccc(Nc2c([N+](=O)[O-])cc([N+](=O)[O-])cc2[N+](=O)[O-])c1 | inactive: -3.4% |
| Cc1ccc(C)c(NP(C)(=O)Oc2ccccc2)c1 (centres undefined) | inactive: -2.6% |
| CP(=O)(Nc1cccc(Br)c1)Oc1ccccc1 (centres undefined) | inactive: 3% |
| Cc1cc(C)cc(OP(C)(=O)Nc2ccccn2)c1 (centres undefined) | inactive: -1.1% |
| COc1ccccc1OP(C)(=O)Nc1cccc(Br)c1 (centres undefined) | inactive: -2.1% |
| CCOC(=O)c1ccc(NP(C)(=O)Oc2cc(C)cc(C)c2)cc1 (centres undefined) | inactive: 1.4% |
| Cc1cc(C)cc(OP(C)(=O)Nc2ccc(C)cc2C)c1 (centres undefined) | inactive: 0.9% |
| O=[N+]([O-])c1cc([N+](=O)[O-])c(-c2cnn(-c3ccccc3)c2)c([N+](=O)[O-])c1 | inactive: 3.6% |
| Cc1nc2ccc3ccccc3c2s1.O=[N+]([O-])c1cc([N+](=O)[O-])c(O)c([N+](=O)[O-])c1 | inactive: 3.2% |
| O=[N+]([O-])c1cc([N+](=O)[O-])c(-n2nnc3ccccc32)c([N+](=O)[O-])c1 | inactive: -1.1% |
| CN(Cc1cccnc1)C(=O)COc1ccc(Cl)c(Cl)c1.O=[N+]([O-])c1cc([N+](=O)[O-])c(O)c([N+](=O)[O-])c1 | inactive: -20.5% |
| COc1ccccc1OP(C)(=O)Nc1c(C)cccc1C (centres undefined) | inactive: -0.6% |
| CN1CCCCC1COC(=O)C1(O)c2ccccc2CCc2ccccc21 (centres undefined) | inactive: -6.8% |
| CP(=O)(Nc1ccc(SC(F)(F)F)cc1)Oc1ccccc1 (centres undefined) | inactive: -17.2% |
| CCCOc1ccc(NP(C)(=O)Oc2ccc(Cl)cc2)cc1 (centres undefined) | inactive: 1.9% |
| O=[N+]([O-])c1cc([N+](=O)[O-])c(Nc2nnnn2CCO)c([N+](=O)[O-])c1 | inactive: -5.7% |
| CC1=C2N=C(C=C3N=C(C(C)=C4[N-][C@@](C)([C@@H]5N=C1[C@](C)(CCC(=O)NC[C@@H](C)OP(=O)([O-])O[C@H]1[C@@H](O)[C@@H](n6cnc7cc(C)c(C)cc76)O[C@@H]1CO)[C@H]5CC(N)=O)[C@@](C)(CC(N)=O)[C@@H]4CCC(N)=O)[C@@](C)(CC(N)=O)[C@@H]3CCC(N)=O)C(C)(C)[C@@H]2CCC(N)=O.[C-]#N.[Co+3] | inactive: -4.9% |
| CCOC(=O)C(CC)C1=NC(C)(C)Cc2ccccc21.O=[N+]([O-])c1cc([N+](=O)[O-])c(O)c([N+](=O)[O-])c1 (centres undefined) | inactive: -2.1% |
| CP(=S)(Nn1cnnc1)Oc1ccccc1 (centres undefined) | inactive: 0.9% |
| CP(=O)(Nc1ccccc1Br)Oc1ccccc1 (centres undefined) | inactive: 15.2% |
| COc1ccccc1OP(C)(=O)Nc1ccccc1 (centres undefined) | inactive: -2.3% |
| CCOC(=O)c1ccc(NP(C)(=O)Oc2ccc(OC)cc2)cc1 (centres undefined) | inactive: 5.7% |
| O=[N+]([O-])c1cc([N+](=O)[O-])c(O)c([N+](=O)[O-])c1.c1ccc(Oc2ccncc2)cc1 | inactive: 0% |

| SMILES | inhibition |
| --- | --- |
| CCOP(C)(=S)SCC(=O)NC(C)C(=O)O (centres undefined) | inactive: -2.7% |
| CP(=O)(Nc1ccccn1)Oc1ccc(Cl)cc1 (centres undefined) | inactive: -3.7% |
| Cc1cccc(C)c1OP(C)(=O)Nc1ccc(SC(F)(F)F)cc1 (centres undefined) | inactive: -15.4% |
| Cc1ccc(Nc2c([N+](=O)[O-])cc([N+](=O)[O-])cc2[N+](=O)[O-])cc1 | inactive: -7.5% |
| CP(=O)(Nc1ccc(SC(F)(F)F)cc1)Oc1ccc(Cl)cc1 (centres undefined) | inactive: -7.2% |
| CP(=O)(Oc1ccccc1)OC(c1ccccc1)C(F)(F)F (centres undefined) | inactive: -7.9% |
| CCc1ccc(OP(C)(=O)N2CCN(c3ccc([N+](=O)[O-])cc3)CC2)cc1 (centres undefined) | inactive: 11.6% |
| CP(=O)(NC(=O)Nc1ccccc1)Oc1ccccc1 (centres undefined) | inactive: -4.5% |
| Cc1cc(C)cc(OP(C)(=O)Nc2ccc(SC(F)(F)F)cc2)c1 (centres undefined) | inactive: -4.3% |
| CCN(CC)CCCOC(=O)C(O)(c1ccccc1)c1ccccc1 | inactive: -7.5% |
| COc1ccccc1OP(C)(=O)Nc1ccc(C)cc1 (centres undefined) | inactive: -0.7% |
| Cc1ccc(NP(C)(=O)Oc2ccccc2)c(C)c1 (centres undefined) | inactive: 1.9% |
| CCOC(=O)c1ccc(NP(C)(=O)Oc2ccccc2)cc1 (centres undefined) | inactive: 2.2% |
| Cc1cc(C)cc(OP(C)(N)=O)c1 (centres undefined) | inactive: 1.7% |
| COc1ccccc1OP(C)(=O)Nc1cc(Cl)ccc1C (centres undefined) | inactive: 5.8% |
| COc1ccc(OP(C)(=O)Nc2cccc(F)c2)cc1 (centres undefined) | inactive: -0.5% |
| O=[N+]([O-])c1cc([N+](=O)[O-])c(Nc2cccnc2)c([N+](=O)[O-])c1 | inactive: -5.1% |
| O=[N+]([O-])c1ccc2c(c1)C=Nc1ccccc1O2 | inactive: -3.4% |
| CC(C)(C)c1ccc(OP(C)(=O)Nc2ccc(SC(F)(F)F)cc2)cc1 (centres undefined) | inactive: 3.4% |
| Cc1cccc(C)c1OP(C)(N)=O (centres undefined) | inactive: 0.2% |
| CP(=O)(OCCOc1ccccc1)OCCOc1ccccc1 | inactive: -7.5% |
| CCCCCCCCCCCCCCCC1C[N+](C)(C)CCOP(C)(=O)O1 (centres undefined) | active: 75.1% |
| CP(=O)(Nc1ccc(Cl)cc1Cl)Oc1ccccc1 (centres undefined) | inactive: 2.7% |
| O=C1C(O)=C([N+](=O)[O-])C(=O)C(O)=C1[N+](=O)[O-] | inactive: -34.2% |

| SMILES | inhibition |
| --- | --- |
| Cc1cc(C)cc(OP(C)(=O)Nc2cccc(C(F)(F)F)c2)c1 (centres undefined) | inactive: 6.6% |
| COc1ccccc1OP(C)(=O)Nc1ccc(C)c(C)c1 (centres undefined) | inactive: 1.8% |
| COc1ccc(OP(C)(=O)Nc2ccccc2Br)cc1 (centres undefined) | inactive: -5.8% |
| O=[N+]([O-])c1cc([N+](=O)[O-])c(Nc2ccccn2)c([N+](=O)[O-])c1 | inactive: 3.5% |
| Cc1c(NP(C)(=O)Oc2ccc(C(C)C)cc2)c(=O)n(-c2ccccc2)n1C (centres undefined) | inactive: -4% |
| CP(=O)(Nc1ccccn1)Oc1ccccc1 (centres undefined) | inactive: 2.7% |
| COc1ccccc1OP(C)(=O)Nc1ccc(C)cc1C (centres undefined) | inactive: -2.6% |
| CCc1ccc(OP(C)(=O)O)cc1 | inactive: 2.4% |
| COc1ccccc1OP(C)(=O)Nc1ccc(Br)cc1 (centres undefined) | inactive: -26% |
| COc1ccc(OP(C)(=O)Nc2ccccn2)cc1 (centres undefined) | inactive: -0.4% |
| CN(C)CCOC(=O)C(O)(c1ccccc1)C1CCCC1 (centres undefined) | inactive: 5.7% |
| CC(C)(C)c1ccc(OP(C)(=O)O)cc1 | inactive: 3.8% |
| COc1ccccc1OP(C)(=O)Nc1ccccc1Br (centres undefined) | inactive: -9% |
| CP(=O)(Nc1ccc(Cl)cc1)Oc1ccc(F)cc1 (centres undefined) | inactive: -8.6% |
| CN(C)C(=O)c1c([N+](=O)[O-])cc([N+](=O)[O-])cc1[N+](=O)[O-] | inactive: 8.1% |
| CCN(CC)CC(O)COC(=O)C(O)(c1ccccc1)C1CCCCC1 (centres undefined) | inactive: -5.4% |
| COc1ccc(OP(C)(=O)Nc2ccc(Br)cc2)cc1 (centres undefined) | inactive: 4.5% |
| COc1ccccc1OP(C)(=O)Nc1c(C)n(C)n(-c2ccccc2)c1=O (centres undefined) | inactive: -2.7% |
| O=C(OCCCN1CCCC1)C(O)(c1ccccc1)C1CCCCC1 (centres undefined) | inactive: -1.3% |
| CP(=O)(Oc1ccccc1)N1CCOC1=O (centres undefined) | inactive: 0.8% |
| CCc1ccc(OP(C)(=O)Nc2cccnc2)cc1 (centres undefined) | inactive: -9.4% |
| CCOC(=O)c1ccc(NP(C)(=O)Oc2ccc(Cl)cc2)cc1 (centres undefined) | inactive: -10.3% |
| CP(=O)(OC12CC3CC(CC(C3)C1)C2)OC12CC3CC(CC(C3)C1)C2 | inactive: 0.5% |
| O=[N+]([O-])c1ccc(OP2(=O)COCCO2)cc1 (centres undefined) | inactive: -0.9% |

| SMILES | inhibition |
| --- | --- |
| O=[N+]([O-])c1cc([N+](=O)[O-])c(NCC2CCS(=O)(=O)C2)c([N+](=O)[O-])c1 (centres undefined) | inactive: 0.3% |
| Cc1cc(-c2cccc3ccccc23)c(C)cn1.O=[N+]([O-])c1cc([N+](=O)[O-])c(O)c([N+](=O)[O-])c1 | inactive: -6.3% |
| Cc1c(C(c2ccc3c(c2)OCO3)c2c(C)n(C)n(-c3ccccc3)c2=O)c(=O)n(-c2ccccc2)n1C.O=[N+]([O-])c1cc([N+](=O)[O-])c(O)c([N+](=O)[O-])c1 | inactive: 1.6% |
| COc1ccc(OP(C)(=O)Nc2cccc(Br)c2)cc1 (centres undefined) | inactive: -12.5% |
| CN(C)CCOC(=O)C(O)(c1ccccc1)C1CCCCC1 (centres undefined) | inactive: -3% |
| CP(=O)(Nc1ccc2c(c1)OCCO2)Oc1ccccc1 (centres undefined) | inactive: 2.4% |
| Cc1ccccc1NP(C)(=O)Nc1ccccc1C | inactive: 0.2% |
| CP(=O)(Nc1ccc(SC(F)(F)F)cc1)Oc1ccc(F)cc1 (centres undefined) | inactive: -10.2% |
| CCOP(C)(=S)SCC(=O)NC(C)(CC)C(=O)O (centres undefined) | inactive: -0.1% |
| O=C(OC1CN2CCC1CC2)c1ccc([N+](=O)[O-])cc1 (centres undefined) | inactive: -1.9% |
| O=C(OCCN1CCN(CCOCc2ccccc2)CC1)C(O)(c1ccccc1)c1ccccc1 | inactive: 1.6% |
| COc1ccc2c(c1O)-c1c(O)c(OC)cc3c1[C@H](C2)[N+](C)(C)CC3.O=[N+]([O-])c1cc([N+](=O)[O-])c([O-])c([N+](=O)[O-])c1[O-] | inactive: -12.8% |
| O=[N+]([O-])c1cc([N+](=O)[O-])c(Nc2ccc(Cl)cc2)c([N+](=O)[O-])c1 | inactive: 0.7% |
| CP(=O)(Nc1ccccc1F)Oc1ccccc1 (centres undefined) | inactive: -7.2% |
| CC(C)c1ccc(OP(C)(=O)Nc2ccc(SC(F)(F)F)cc2)cc1 (centres undefined) | inactive: -2.5% |
| Cc1c([N+](=O)[O-])cc([N+](=O)[O-])c(Br)c1[N+](=O)[O-] | inactive: 1.9% |
| CCN(CC)CCCOC(=O)C(O)(c1ccccc1)C1CCCCC1 (centres undefined) | inactive: -3.1% |
| CP(=O)(Nc1ccccc1)Oc1ccc(F)cc1 (centres undefined) | inactive: -1.7% |
| CCCCCOc1ccc(NP(C)(=O)Oc2ccc(Cl)cc2Cl)cc1 (centres undefined) | inactive: 1.1% |
| O=[N+]([O-])c1cc([N+](=O)[O-])c(OC2CCCCC2O)c([N+](=O)[O-])c1 (centres undefined) | inactive: 0.7% |
| CCOC(=O)c1ccc(NP(C)(=O)Oc2ccc(F)cc2)cc1 (centres undefined) | inactive: 0.1% |
| COc1ccc(OP(C)(=O)Nc2ccc(SC(F)(F)F)cc2)cc1 (centres undefined) | inactive: -3.3% |
